Assay results from patent US8906933B2, “Dihydropyrimidin-2(1H)-one compounds as neurokinin-3 receptor antagonists” (N30 Pharmaceuticals, Inc., priority 2010, dated 2014).

Protein sequences, listed by entry. Tags and fused reporters are not part of them. Lines headed by an entry give the natural chain unless they say otherwise; changes in a name come on top.
UniProt P11766: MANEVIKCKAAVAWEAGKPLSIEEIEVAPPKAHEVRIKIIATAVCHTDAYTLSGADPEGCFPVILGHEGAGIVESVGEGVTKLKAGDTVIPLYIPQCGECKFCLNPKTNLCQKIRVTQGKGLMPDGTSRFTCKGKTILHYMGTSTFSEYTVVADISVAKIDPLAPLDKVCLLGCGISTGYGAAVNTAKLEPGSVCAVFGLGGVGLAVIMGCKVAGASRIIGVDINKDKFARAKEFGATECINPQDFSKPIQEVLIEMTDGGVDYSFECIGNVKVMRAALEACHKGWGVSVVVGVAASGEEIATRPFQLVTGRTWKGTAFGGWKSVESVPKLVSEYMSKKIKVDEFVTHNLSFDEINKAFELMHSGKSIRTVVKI

Target: GSNOR (Homo sapiens (Human), UniProt P11766)
Experiment: GSNOR IC50 (method in incorporated applications)
Format: biochemical

`CCOc1cc([C@@H]2NC(=O)NC(c3ccccc3)=C2c2ccsc2)cc([N+](=O)[O-])c1O` [4-(3-ethoxy-4-hydroxy-5-nitrophenyl)-6-phenyl-5-(thiophen-3-yl)-3,4-dihydropyrimidin-2(1H)-one] showed an IC50 of 0.018 µM.
